The target in the test is 5-hydroxytryptamine receptor 7 (Rattus norvegicus, UniProt P32305).

Protein sequences, listed by entry. Tags and fused reporters are not part of them.
UniProt P32305, whole entry: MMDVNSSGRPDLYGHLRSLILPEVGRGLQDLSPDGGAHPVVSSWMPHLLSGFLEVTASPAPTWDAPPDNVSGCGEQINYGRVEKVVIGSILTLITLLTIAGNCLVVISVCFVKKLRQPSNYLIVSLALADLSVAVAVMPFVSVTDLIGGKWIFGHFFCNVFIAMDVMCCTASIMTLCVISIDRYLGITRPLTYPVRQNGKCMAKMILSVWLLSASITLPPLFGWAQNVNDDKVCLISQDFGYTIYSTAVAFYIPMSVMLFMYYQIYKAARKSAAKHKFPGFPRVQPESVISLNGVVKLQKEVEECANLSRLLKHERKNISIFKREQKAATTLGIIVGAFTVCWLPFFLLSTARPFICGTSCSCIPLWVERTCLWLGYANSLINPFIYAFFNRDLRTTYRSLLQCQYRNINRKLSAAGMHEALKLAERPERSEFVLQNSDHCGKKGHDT

pKi: −log10 of the molar value.

For the compound `NCC(O)c1ccc(O)c(O)c1` (stereo not drawn) [Noradrenaline,(+)], the pKi is 6.00.

The values are drawn from BindingDB's records for PubMed 8394362 (National Institute of Neurological Disorders and Stroke, 1993).
